Data taken from US11090304B2 (Amgen Inc., priority 2018, dated 2021).

Sequences of proteins named here, by UniProt entry; tags and fusion partners are left off. Residues count along the entry.
UniProt P01116, 1-169 isoform 2 C118A/G12C limits assumed: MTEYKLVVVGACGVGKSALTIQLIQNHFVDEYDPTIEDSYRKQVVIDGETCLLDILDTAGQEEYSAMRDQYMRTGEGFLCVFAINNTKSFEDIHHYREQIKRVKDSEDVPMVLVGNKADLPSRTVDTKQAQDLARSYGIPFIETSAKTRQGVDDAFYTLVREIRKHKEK

Assays:
[1] = biological target: GDP-bound KRAS protein (aa 1-169), containing both G12C and C118A amino acid substitutions (Homo sapiens, UniProt P01116, C118A/G12C); experiment: Coupled nucleotide exchange assay (SOS-mediated, AlphaScreen); assay type: biochemical; settings: read-out: Coupled exchange IC50 (5 min); 5 min compound pre-incubation
[2] = system: Phosphorylation of ERK1/2 in MIA PaCa-2 cells; experiment: Phospho-ERK1/2 MSD assay in MIA PaCa-2 cells; assay type: cell-based; settings: read-out: p-ERK IC50 (2 h; MIA PaCa-2), 2 h compound treatment

## C=CC(=O)N1CCN(c2nc(=O)n(-c3cccnc3C(C)(C)C)c3nc(-c4c(O)cccc4F)c(Cl)cc23)[C@@H](C)C1 (single isomer, unassigned) [Example 54-103-1]
[1]
  IC50: 136 nM
[2]
  IC50: 173 nM
